Columns and labels:
[1] = Exploratory trial: amount of rikkunshito ingredients in urine; type: in vivo, human; conditions: mean ± S.D., n = 4; for Amount in urine, 0–4 h: 0–4 h after single oral rikkunshito 7.5 g
Method: (§1) In the first exploratory trial, 20-mL blood samples were collected from the cutaneous vein in the subjects’ forearm via a blood sampling tube that contained heparin at 0 (preadministration), 0.5, 1, 2, 4, and 8 h after a single oral administration of rikkunshito (Lot E24652). The dose of rikkunshito used in this trial was 7.5 g/day, which is the clinical daily dose, to widely explore rikkunshito-derived ingredients that enter the blood. Along with plasma, urine samples were collected at three points: between dinner and bedtime (preadministration), between 0 and 4 h after administration, and between 4 and 8 h after administration. The blood was immediately centrifuged at 1700 ×g for 10 min to obtain plasma. Plasma and urine fractions were stored at −80°C or lower until analysis.
(§2) For quantification of synephrine, 5 µL of standard solution or methanol was added to 100 µL plasma or urine samples followed by mixing. Ten microliters of erythromycin [internal standard (IS)] solution was added to the solutions followed by mixing and centrifugation (20,400 ×g, 5 min, 4°C). The supernatants were loaded onto an Ostro 96-well plate (Waters) and centrifuged (1500 ×g, 3 min, 4°C) followed by injection into the LC–MS/MS.
(§3) For quantification of 30 ingredients other than atractylodin and synephrine, 25 µL of standard solution or methanol was added to 500 µL plasma or urine samples followed by mixing. Atractylenolide III or digoxin (IS) solution (50 μL) was added to the solutions followed by mixing. For urine, 400 µL of blank plasma was added to the solutions. Ammonium acetate solution (100 mM, 100 or 400 µL) was added to the solutions followed by mixing. For enzymatic treatment, plasma and urine samples were incubated with β-glucuronidase (100 units in 100 mM ammonium acetate) for 2 h at 37°C. A solid-phase cartridge (OASIS HLB, 30 mg/1cc, Waters) was conditioned with methanol and 10 mM ammonium acetate solution, and the samples were loaded onto the cartridge. The cartridge was washed water : methanol (9:1, v/v), and 1.5 mL of methanol and 30 µL of propylene glycol were added to the cartridge to elute the analytes. The mixtures were dried at 25°C under a stream of nitrogen gas. Furthermore, 100 μL of 10 mM ammonium acetate : methanol (8:2, v/v) was added to the dried samples followed by mixing and sonication. The solutions were filtered (0.22 µm) and followed by injection into the LC–MS/MS system. […] Those analytical conditions are summarized in S2 Table and S3 Table.

[2] = Stability of ingredients in gastric pH solution (pH 1.2, 37°C); type: physicochemical; conditions: rikkunshito in acidic solution (pH 1.2) at 37°C
Method: Rikkunshito gradually dissolved in acidic solution (pH 1.2) at 37°C, and the concentration of atractylodin after adding 0.25, 0.5, 1, and 2 h was measured by gas chromatography–mass spectrometry.

[3] = of the ingredient in the formulation; summary table, reference not given; cited from earlier work
[4] = Formation of ingredients derived from rikkunshito in formulation, blood, and urine (S11 Table summary); conditions: after rikkunshito administration, per ingredient in the formulation; for Formation of ingredients: form found in Urine: BQL = below the quantification limit
[5] = Exploratory trial: plasma concentration of rikkunshito ingredients after single oral rikkunshito 7.5 g; type: in vivo; conditions: mean ± S.D., n = 4
Method: A random sequence was generated using a computer. The safety endpoint was evaluated in all volunteers.
as §1, §2, §3

| Substance | Amount in urine, 0–4 h [1] | Amount in urine, 0–4 h ([1]; listed as liquiritin apioside) | Amount in urine, 4–8 h ([1]; 4–8 h after single oral rikkunshito 7.5 g) | Amount in urine, Pre ([1]; preadministration (between dinner and bedtime)) | Stability in gastric pH solution, Quantitative value ([2]; 0.5 h) | Stability in gastric pH solution, Quantitative value ([2]; 1 h) | Stability in gastric pH solution, Quantitative value ([2]; 2 h) | Metabolite by enterobacterium [3] | Formation of ingredients: form found in Blood [4] | Formation of ingredients: form found in Urine [4] | Plasma concentration, 0 h ([5]; 0 h (preadministration), single oral rikkunshito 7.5 g) | Plasma concentration, 0.5 h ([5]; 0.5 h after single oral rikkunshito 7.5 g) | Plasma concentration, 1 h ([5]; 1 h after single oral rikkunshito 7.5 g) | Plasma concentration, 2 h ([5]; 2 h after single oral rikkunshito 7.5 g) | Plasma concentration, 4 h ([5]; 4 h after single oral rikkunshito 7.5 g) | Plasma concentration, 8 h ([5]; 8 h after single oral rikkunshito 7.5 g) |
| --- | --- | --- | --- | --- | --- | --- | --- | --- | --- | --- | --- | --- | --- | --- | --- | --- |
| Liquiritin apioside | 4330 ± 1530 ng | 4,330 ng | 2370 ± 1080 ng | BQL | 1250 ng/mL | 1340 ng/mL | 1190 ng/mL | Liquiritigenin^b | Liquiritin apioside Liquiritigenin^c | Liquiritin apioside Liquiritigenin^c | BQL | 340 ± 91.8 pg/mL | 473 ± 94.2 pg/mL | 420 ± 163 pg/mL | 204 ± 139 pg/mL | BQL |
| isoliquiritin apioside |  |  |  |  |  |  |  | Isoliquiritigenin | Isoliquiritigenin Conjugate metabolites of isoliquiritigenin | Isoliquiritigenin Conjugate metabolites of isoliquiritigenin |  |  |  |  |  |  |
